AlphaSeq binding of Ab-14 light chain variants to a spike HR2 peptide

Target peptide (SARS-CoV-2 spike, HR2 region): PDVDLGDISGINAS

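The parent was found by panning a naive human phage display library on the peptide. This is the validation round: designs drawn from the data on random variants, tested in the same kind of assay. Group labels follow the data file (Ctrl: baseline library sampled from a position-specific scoring matrix, with some repeated check sequences; GP: Gaussian process model; HC: hill climbing; Gen: genetic algorithm; Gibbs: Gibbs sampling; a sequence that several methods proposed may carry one label only). The assay is AlphaSeq: two haploid yeast populations carry antibody and antigen on their surface. Pairs that bind mate more often; barcode pairs of the diploids are counted by sequencing. The ratio of observed to expected reads was calibrated, replicate by replicate, on BCL2-family standards whose Kd was known from biolayer interferometry. Each pool was mated in six replicate cultures.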

Parent: Ab-14, a human scFv built as VH, a 15-residue (Gly4Ser)3 linker, VL. Only the CDRs of the light chain vary.
VH: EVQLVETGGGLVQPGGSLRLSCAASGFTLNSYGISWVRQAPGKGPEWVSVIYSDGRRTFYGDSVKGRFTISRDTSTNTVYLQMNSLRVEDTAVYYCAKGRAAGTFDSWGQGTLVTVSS
VL: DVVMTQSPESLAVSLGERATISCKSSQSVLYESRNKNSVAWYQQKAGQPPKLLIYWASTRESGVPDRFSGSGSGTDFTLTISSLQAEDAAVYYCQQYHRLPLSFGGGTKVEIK

Positions count from residue 1 of the parent VL; S25L puts L in place of S.
Variants here have at most six changes.
The Kd shown is the geometric mean over detected replicates; a lower Kd is a better binder.
An entry "not detected" has no value in the source: the pair was not observed among the diploids in any replicate. This suggests poor binding but is not conclusive.
The list is sorted by this average, lowest first, undetected variants last.
The range of this assay differs from that of the first round, and the authors advise against merging the two.

| changes | group | Kd (apparent) | replicates with signal | signal with controls |
|---|---|---|---|---|
| S25L/V29M/W56N/S62D | GP_Gen | 240 pM | 6/6 | 0/18 |
| S25L/V29W/L30E/W56N/T59Q/S62V | GP_Gen | 320 pM | 6/6 | 0/18 |
| S25L/S28L/V29M/W56N/E61M | GP_Gibbs | 320 pM | 6/6 | 1/18 |
| S25A/L30E/W56E/H98A | Ctrl | 420 pM | 6/6 | 2/18 |
| S25V/S26Q/S38N/W56H/S62D/H98A | GP_HC | 420 pM | 6/6 | 1/18 |
| S25L/V29Q/W56N/T59Q/S62V | GP_Gen | 440 pM | 6/6 | 0/18 |
| S25L/W56E/S58T | GP_Gen | 450 pM | 6/6 | 0/18 |
| S25L/Y31Q/W56N | GP_Gen | 470 pM | 6/6 | 2/18 |
| S25L/S26K/V29E/W56N/T59Q | GP_Gen | 470 pM | 6/6 | 0/18 |
| S25L/S26R/V29M/K36Q/W56N | GP_HC | 560 pM | 6/6 | 0/18 |
| S25L/S26Q/V29F/W56N | GP_Gen | 570 pM | 6/6 | 0/18 |
| S26G/S28E/W56G/T59L | GP_HC | 610 pM | 6/6 | 0/18 |
| S25V/Q27M/V29W/W56N/T59Q | GP_Gen | 630 pM | 6/6 | 0/18 |
| S26P/V29Y/L30P/W56G | GP_HC | 650 pM | 6/6 | 0/18 |
| S25L/Q27W/V29E/W56E | GP_Gen | 670 pM | 6/6 | 0/18 |
| S26Q/V29Q/L30E/W56H/E61C/S62D | GP_HC | 670 pM | 6/6 | 0/18 |
| S25V/S26Q/V29H/W56E | GP_Gen | 670 pM | 6/6 | 1/18 |
| S25L/V29H/W56D/T59Q | GP_Gen | 680 pM | 6/6 | 1/18 |
| S25L/V29D/S38N/W56D | GP_Gen | 710 pM | 6/6 | 1/18 |
| S25V/W56N/E61F | GP_Gen | 720 pM | 6/6 | 2/18 |
| S25I/R34V/W56D | GP_HC | 720 pM | 6/6 | 1/18 |
| S25L/N37W/S38N/W56N | GP_Gen | 740 pM | 6/6 | 1/18 |
| S25L/Y31M/W56E/E61S | GP_Gen | 770 pM | 6/6 | 0/18 |
| S25L/V29M/N37W/W56N/T59Q | GP_Gen | 870 pM | 6/6 | 0/18 |
| S25V/S26E/V29H/W56Q | GP_Gen | 880 pM | 6/6 | 2/18 |
| S25M/S26E/S33Q/R34K/K36G/W56A | Ctrl | 950 pM | 6/6 | 0/18 |
| S25L/S26M/V29E/W56E/T59Q | GP_Gen | 1.0 nM | 6/6 | 0/18 |
| S25L/S26M/V29S/W56N | GP_Gen | 1.0 nM | 6/6 | 1/18 |
| Q27I/V29Q/W56E/S103M | GP_HC | 1.1 nM | 6/6 | 1/18 |
| S26L/S38N/W56A/S62D/H98A | GP_HC | 1.1 nM | 6/6 | 0/18 |
| K24L/Q27F/V29Y/R34P/W56E | GP_HC | 1.2 nM | 6/6 | 0/18 |
| S25I/S26L/W56H/S62D/H98G | GP_HC | 1.5 nM | 6/6 | 1/18 |
| S25L/Q27G/V29E/W56H | GP_Gen | 1.6 nM | 6/6 | 1/18 |
| S25L/Q27W/V29D/K36C/W56N/S62V | GP_Gibbs | 1.7 nM | 6/6 | 2/18 |
| S25V/Q27P/V29H/W56Q | GP_HC | 1.8 nM | 6/6 | 0/18 |
| S25L/S26Q/V29W/W56E/E61L | GP_Gen | 1.9 nM | 6/6 | 2/18 |
| K24A/S25L/V29E/K36W/W56N/S62D | GP_Gibbs | 2.0 nM | 6/6 | 1/18 |
| S25L/K36T/W56K | Ctrl | 2.0 nM | 6/6 | 0/18 |
| V29T/R34G/W56H | GP_HC | 2.0 nM | 6/6 | 0/18 |
| K24N/S25L/W56N | GP_Gen | 2.0 nM | 6/6 | 1/18 |
| S25L/V29E/W56N/E61M/S62K | GP_Gen | 2.1 nM | 6/6 | 5/18 |
| S25L/V29N/W56N/T59Y | GP_Gen | 2.3 nM | 6/6 | 1/18 |
| W56N/Q95P | Ctrl | 2.3 nM | 6/6 | 0/18 |
| S28P/V39I/W56E | Ctrl | 2.4 nM | 6/6 | 1/18 |
| S25L/Q27M/V29W/W56H | GP_Gen | 2.6 nM | 6/6 | 0/18 |
| S25V/S38A/W56D/R99W | GP_HC | 3.6 nM | 6/6 | 1/18 |
| K24Y/S25L/L30E/W56S/S62Y/S103A | GP_Gibbs | 3.7 nM | 6/6 | 0/18 |
| S25V/V29Q/K36M/W56N/S62M/S103V | GP_Gibbs | 4.0 nM | 6/6 | 0/18 |
| S25L/S26R/S28Q/V29T/S62E | GP_HC | 5.7 nM | 6/6 | 0/18 |
| S25M/S103M | Ctrl | 6.5 nM | 6/6 | 0/18 |
| Q27E/V29Y/W56A/S62V | GP_HC | 6.7 nM | 5/6 | 0/18 |
| S25L/S26Q/V29H/W56H/E61L | GP_Gen | 7.5 nM | 6/6 | 0/18 |
| Q27E/R34H/W56N/E61M | GP_HC | 27 nM | 6/6 | 2/18 |
| S25F/S28D/Y31V/N35Y/Y97V | Ctrl | 38 nM | 6/6 | 1/18 |
| R34L/K36H | Ctrl | 39 nM | 6/6 | 0/18 |
| S26N/R34Q/T59K/S62K | Ctrl | 73 nM | 6/6 | 1/18 |
| S33N/T59K/L102C | Ctrl | 110 nM | 3/6 | 0/18 |
| K24M/S62R/S103H | Ctrl | 120 nM | 2/6 | 1/18 |
| S26L/Y31P/S62E | Ctrl | 350 nM | 5/6 | 0/18 |
| Y31S/S103I | Ctrl | 450 nM | 3/6 | 1/18 |
| W56N/Q95C/H98C | Ctrl | not detected | 0/6 | 2/18 |
| K24V/Q27L/Y31N/R99H | Ctrl | not detected | 0/6 | 0/18 |
| S25H/W56A/S58N/S62N/Y97P | Ctrl | not detected | 0/6 | 0/18 |
| N35A/T59Q | Ctrl | not detected | 0/6 | 0/18 |
| E32Y/T59H | Ctrl | not detected | 0/6 | 0/18 |

Excerpt, the first 9 entries:

| changes | group | Kd (apparent) | replicates with signal | signal with controls |
|---|---|---|---|---|
| S25L/V29M/W56N/S62D | GP_Gen | 240 pM | 6/6 | 0/18 |
| S25L/V29W/L30E/W56N/T59Q/S62V | GP_Gen | 320 pM | 6/6 | 0/18 |
| S25L/S28L/V29M/W56N/E61M | GP_Gibbs | 320 pM | 6/6 | 1/18 |
| S25A/L30E/W56E/H98A | Ctrl | 420 pM | 6/6 | 2/18 |
| S25V/S26Q/S38N/W56H/S62D/H98A | GP_HC | 420 pM | 6/6 | 1/18 |
| S25L/V29Q/W56N/T59Q/S62V | GP_Gen | 440 pM | 6/6 | 0/18 |
| S25L/W56E/S58T | GP_Gen | 450 pM | 6/6 | 0/18 |
| S25L/Y31Q/W56N | GP_Gen | 470 pM | 6/6 | 2/18 |
| S25L/S26K/V29E/W56N/T59Q | GP_Gen | 470 pM | 6/6 | 0/18 |

As a blank, each scFv also met three strains without target: over all light chain designs, 4% of these pairings were detected, typically at 430 nM and seldom below 38 nM. The control count says in how many pairings with the empty strains this scFv gave a signal.
In the paper, a design with two or fewer of six values counts as a poor binder.

Values reported by Li et al. 2023, doi:10.1038/s41467-023-39022-2 (FLAb copy).